This note sets out measurements from PubChem BioAssay AID624291 (National Center for Advancing Translational Sciences (NCATS), 2012).

The list shows a part of the results, in another mix than the full data. Results filed as inconclusive are left out. The source made the active and inactive calls. Calls come from the whole dose curve; as a rule, active = well fitted activation curve with a large enough effect; inconclusive = small, poorly fitted or top-dose-only effect; inactive = no such curve, though single readings can be large or run the other way.

The test is described as follows: qHTS for Activators of Integrin-Mediated Alleviation for Muscular Dystrophy.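 Note: 100% = response of the positive control SU9516; nearly all actives have a fitted effect of over 60% in size.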 The conditions noted are these: alpha7betagal myoblasts, beta-gal FDG fluorescence, 48 h; at 38.3 µM (top of the series) unless noted. Background: In qHTS, concentration-response curves come from the screen itself.
Consider `Nc1ccc([As](=O)(O)c2ccc([N+](=O)[O-])cc2)cc1`, for which the activation was inactive: 9.34%. As to `O=C(OC1CN2CCC1CC2)c1cccc(Cl)c1` (stereo unspecified), the activation was inactive: -20.2%.

Take `CC(=O)NC(SC(=S)N(C)C)C(Cl)(Cl)Cl` (stereo unspecified): the activation is inactive: -43.4%. Regarding `O=[N+]([O-])c1ncn(CCn2cnc([N+](=O)[O-])n2)n1`, the activation was inactive: 30.2%. In the case of `O=[As](O)(c1ccccc1)c1ccc(O)cc1` it was inactive: 6.57%. Turning to `C[C@H]1OP(=O)(Oc2ccccc2)[C@H](O)[C@H](O)[C@H]1N=[N+]=[N-]` (stereo partly specified), the activation was inactive: -24.9%.

As for `O=P(Nc1nc2ccccc2s1)(c1ccccc1)c1ccccc1`, the activation was inactive: -4.11%. With `COc1ccc(N)c([N+](=O)[O-])c1[N+](=O)[O-]` the figure was inactive: 0%; with `O=P(Nc1ccccn1)(c1ccc(Br)cc1)c1ccc(Br)cc1`, inactive: 31.1%; with `CN(C)C1(CNC(=O)c2ccc(Cl)c(S(N)(=O)=O)c2)CCCCC1`, inactive: -16.4%. In the case of `c1nnnn1CCn1cnnn1`, the activation was inactive: -29.6%.

For `CC(C)C(=O)NC(Sc1ccccc1)C(Cl)(Cl)Cl` (stereo unspecified), the activation is inactive: 4.23%. In the case of `O=P(Nc1nccs1)(c1ccccc1)c1ccccc1` it was inactive: 27.4%.

In the case of `CC1(CBr)Cn2c(nc3ccccc3c2=O)S1` (stereo unspecified), the activation is inactive: 1.91%. In the case of `CC(C)/C=N\N=C(\N)N[N+](=O)[O-]` it was inactive: -30.2%; in that of `COc1ccccc1CNC(=O)COC(=O)C(O)(c1ccccc1)c1ccccc1`, inactive: 9.86%; in that of `CC(C)(C)C(=O)NC(Sc1ncccn1)C(Cl)(Cl)Cl` (stereo unspecified), inactive: -18.6%. Regarding `O=P1(N(CCCl)CCCl)NCCC(C(F)(F)F)O1` (stereo unspecified), the activation was inactive: -11.7%. Consider `Clc1n[nH]nc1-c1nn[nH][15n]1`, for which the activation was inactive: 10%. Turning to `CCOP(=O)(Nc1ccc(C)cn1)OCC`, the activation is inactive: -12.9%. For the compound `CCOP(=O)(NC(=NC(C)c1ccccc1)NC(C)c1ccccc1)OCC` (stereo unspecified), the activation is inactive: 3%. Turning to `O=P1(Nc2ccccn2)COc2ccccc2OC1`, the activation was inactive: 13.5%. Turning to `CCC1=CC2Cc3nc4ccc(Cl)cc4c(N)c3C(C1)C2` (stereo unspecified), the activation was inactive: 44.4%.

For `Cc1ccc(OCC(=O)OC2CN3CCC2CC3)cc1` (stereo unspecified), the activation is inactive: 10.1%. With `O=[As](O)(c1cccs1)c1cccs1` the figure was inactive: -5.62%; with `O=P1(Nc2ccc(Br)cn2)COc2ccccc2OC1`, inactive: 0%; with `NS(=O)(=O)c1cccc(NC(=O)COC(=O)C(O)(c2ccccc2)c2ccccc2)c1`, inactive: 0%. In the case of `Nc1cccc([As](=O)(O)c2ccccc2)c1` it was inactive: -22.7%; in that of `O=P1(Nc2ncccn2)COc2ccccc2OC1`, inactive: 0%. In the case of `CCCC1OP(=O)(Nc2ccccc2)OCC1CC` (stereo unspecified) it was inactive: -22.3%. Turning to `O=C(/C=C/c1ccccc1)OC1CN2CCC1CC2` (stereo unspecified), the activation was inactive: -9.39%. Consider `CN(C)C1(CNC(=O)c2ccc(S(C)(=O)=O)cc2)CCCCC1`, for which the activation was inactive: 18.8%. In the case of `CC1CCC(C(C)C)C(OP(=O)(Nc2ccccn2)c2ccccc2)C1` (stereo unspecified) it was inactive: -51.2%.

For `Cc1ccc(C(=O)OC2CN3CCC2CC3)cc1` (stereo unspecified), the activation is inactive: 3.81%. In the case of `Cc1nn(-c2ccccc2)c2c1P(=O)(N1CCOCC1)N(C)C(c1ccccc1)=N2` (stereo unspecified) it was inactive: 0.755%. `O=[N+]([O-])c1ccc2c(c1)nnn2O`: the activation was inactive: 16.8% [at 7.66 µM]. Consider `CN(C)C(=O)c1cc([N+](=O)[O-])cc2c1-c1c(cc([N+](=O)[O-])cc1[N+](=O)[O-])C2=O`, for which the activation was inactive: -59.1%. In the case of `CCOP1(=S)c2c(C)nn(CCC#N)c2N=C(c2ccc(F)cc2)N1C` (stereo unspecified) it was inactive: -25.1%; in that of `N#CCCN(C(=O)COC(=O)C(O)(c1ccccc1)c1ccccc1)c1ccc(F)cc1`, inactive: -5.22%.

In the case of `NC(=O)Nc1ccc([As](=O)(O)O)cc1`, the activation is inactive: -32.1%. With `Nc1ccccc1[As](=O)(O)c1ccccc1`, the activation was inactive: -12.4%. With `O=C(O)COc1ccc([As](=O)(O)O)cc1[N+](=O)[O-]`, the activation is inactive: 0%. In the case of `CS(=O)(=O)c1cc([N+](=O)[O-])c2no[n+]([O-])c2c1` it was inactive: -29.9%; in that of `O=P(Nc1nccs1)(Oc1ccccc1)Oc1ccccc1`, inactive: 24.9%; in that of `O=P(Nc1nccs1)(c1ccccc1)c1nc2ccccc2s1` (stereo unspecified), inactive: -39.3%. In the case of `CCOP1(=S)c2c(C)nn(CCC#N)c2N=C(c2ccccc2F)N1C` (stereo unspecified) it was inactive: 7.58%; in that of `CCCOP(=S)(Nc1nc(N)cc(=O)[nH]1)OCCC`, inactive: -15.8%; in that of `Cc1ccc(NCCc2c([N+](=O)[O-])cc([N+](=O)[O-])cc2[N+](=O)[O-])cc1`, inactive: -31%. Take `Nc1cccc2c([As](=O)(O)O)cccc12`: the activation is inactive: -24.7%. With `Cc1cccc(OCC(=O)OC2CN3CCC2CC3)c1` (stereo unspecified) the figure was inactive: 1.6%; with `O=[As](O)(c1cccc(O)c1)c1cccc(O)c1`, inactive: -21%. With `CS(=O)(=O)c1ccc(Cl)c(NC(=O)COC(=O)C(O)(c2ccccc2)c2ccccc2)c1` the figure was inactive: -27.7%. As to `O=[As](O)(O)c1cccnc1`, the activation was inactive: 27.4%. With `COc1cc(C(=O)NCC2(N3CCOCC3)CCCCC2)cc(Cl)c1OC(C)C` the figure was inactive: -28.4%; with `O=C(OC1CN2CCC1CC2)c1ccc(Cl)cc1` (stereo unspecified), inactive: 0.468%; with `COc1ccc(N/C(=N/P(=O)(N2CCOCC2)N2CCOCC2)N2CCOCC2)cc1`, inactive: -5.4%.

For `O=[N+]([O-])c1cc(Oc2ccc([N+](=O)[O-])cc2C(F)(F)F)cc([N+](=O)[O-])c1`, the activation was inactive: -40.7%. Consider `COc1cc(I)ccc1[As](=O)(O)O`, for which the activation was inactive: -35.3%. In the case of `COc1ccc2nc(NP(=O)(c3ccccc3)c3ccccc3)sc2c1` it was inactive: 18.4%; in that of `O=P1(N(CCCl)CCCl)Nc2ccccc2N1`, inactive: 11%.

Turning to `O=P1(N(CCCl)CCCl)OCCCN1CCCl` (stereo unspecified), the activation was inactive: 16.4%. In the case of `O=C(OC1CN2CCC1CC2)C12CC3CC(CC(C3)C1)C2` (stereo unspecified) it was inactive: 11.8%; in that of `O=[N+]([O-])c1cc([N+](=O)[O-])c(-c2ccn[nH]2)s1`, inactive: -55.8%; in that of `CC(C)NC(=O)NP(=O)(Oc1ccccc1)Oc1ccccc1`, inactive: 17.5%. In the case of `CCN(CC)C(=S)SC(NC=O)C(Cl)(Cl)Cl` (stereo unspecified) it was inactive: -47.4%; in that of `O=C(OC1CN2CCC1CC2)c1cccc2[nH]cnc12` (stereo unspecified), inactive: -9.89%.
